Only a part is listed here, and it is no random draw. Activity calls are given as the source filed them.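 The calls were made as follows: active = mean inhibition of replicates at least 50% and every single replicate also reaching 50%; inconclusive = mean inhibition at least 50% but some replicate falls below 50%; inactive = mean inhibition under 50%.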
These compounds were tested against Histone-lysine N-methyltransferase EZH2 (Homo sapiens) (UniProt Q15910) (assay: inhibition of PRC2 H3K27 methylation – biochemical, DELFIA time-resolved fluorescence, single point, primary screen (AID 651548;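 also: dimethyl H3K27 on biotinylated H3 21-44 peptide detected by antibody; plate controls were median neutral control wells for no effect and median positive control wells for full effect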)). Details: DELFIA TRF, 1 h, at 12.5 µM, hits give high values.

Chains of the proteins cited; added tags and fusions are not shown.
UniProt Q15910, whole entry, looked up: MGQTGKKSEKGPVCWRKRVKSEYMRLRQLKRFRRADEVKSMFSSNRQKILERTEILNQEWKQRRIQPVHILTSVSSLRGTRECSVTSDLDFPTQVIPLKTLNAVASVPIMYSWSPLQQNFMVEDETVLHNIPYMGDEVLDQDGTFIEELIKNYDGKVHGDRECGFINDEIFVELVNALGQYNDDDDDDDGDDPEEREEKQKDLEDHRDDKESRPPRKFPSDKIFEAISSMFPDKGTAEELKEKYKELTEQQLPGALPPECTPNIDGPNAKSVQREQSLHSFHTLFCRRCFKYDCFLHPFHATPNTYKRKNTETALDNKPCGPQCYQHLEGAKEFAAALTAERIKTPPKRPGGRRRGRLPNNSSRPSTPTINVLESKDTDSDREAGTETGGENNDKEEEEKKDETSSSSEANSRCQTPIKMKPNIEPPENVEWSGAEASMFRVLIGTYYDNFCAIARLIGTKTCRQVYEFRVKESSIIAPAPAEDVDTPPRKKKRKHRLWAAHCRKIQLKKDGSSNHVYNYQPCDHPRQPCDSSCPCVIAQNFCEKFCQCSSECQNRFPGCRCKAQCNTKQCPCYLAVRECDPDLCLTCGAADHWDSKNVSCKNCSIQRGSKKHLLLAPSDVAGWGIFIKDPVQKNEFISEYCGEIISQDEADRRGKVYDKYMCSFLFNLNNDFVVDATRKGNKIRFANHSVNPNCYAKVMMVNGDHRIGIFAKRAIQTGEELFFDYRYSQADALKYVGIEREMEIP

| Structure (SMILES) | inhibition |
| --- | --- |
| COc1ccc(CN2/C(=N\P(=O)(Oc3ccccc3)Oc3ccccc3)Cc3ccccc3C2C2CC2)cc1 (centres undefined) | inactive: 38% |
| COc1ccc(CN2/C(=N/P(=O)(Oc3ccccc3)Oc3ccccc3)CC(C)=CC2C)cc1 (centres undefined) | active: 63.3% |
| C=CC1C=C(C)C/C(=N\P(=O)(Oc2ccccc2)Oc2ccccc2)N1Cc1ccc(OC)cc1 (centres undefined) | active: 68.7% |
| CN(C(=O)Cc1ccc(Cl)c(Cl)c1)[C@H]1CCCC[C@@H]1N1CCCC1 | inactive: -13.4% |

Source: PubChem BioAssay AID651548 (Broad Institute, 2012)
